Data: ChEMBL document CHEMBL4373703 (J Med Chem, 2019)

By UniProt entry, the sequences of proteins in these tests, tags left out. Where a name states a change or a piece, a line headed by the entry shows the natural chain unless it says otherwise.
UniProt Q06187: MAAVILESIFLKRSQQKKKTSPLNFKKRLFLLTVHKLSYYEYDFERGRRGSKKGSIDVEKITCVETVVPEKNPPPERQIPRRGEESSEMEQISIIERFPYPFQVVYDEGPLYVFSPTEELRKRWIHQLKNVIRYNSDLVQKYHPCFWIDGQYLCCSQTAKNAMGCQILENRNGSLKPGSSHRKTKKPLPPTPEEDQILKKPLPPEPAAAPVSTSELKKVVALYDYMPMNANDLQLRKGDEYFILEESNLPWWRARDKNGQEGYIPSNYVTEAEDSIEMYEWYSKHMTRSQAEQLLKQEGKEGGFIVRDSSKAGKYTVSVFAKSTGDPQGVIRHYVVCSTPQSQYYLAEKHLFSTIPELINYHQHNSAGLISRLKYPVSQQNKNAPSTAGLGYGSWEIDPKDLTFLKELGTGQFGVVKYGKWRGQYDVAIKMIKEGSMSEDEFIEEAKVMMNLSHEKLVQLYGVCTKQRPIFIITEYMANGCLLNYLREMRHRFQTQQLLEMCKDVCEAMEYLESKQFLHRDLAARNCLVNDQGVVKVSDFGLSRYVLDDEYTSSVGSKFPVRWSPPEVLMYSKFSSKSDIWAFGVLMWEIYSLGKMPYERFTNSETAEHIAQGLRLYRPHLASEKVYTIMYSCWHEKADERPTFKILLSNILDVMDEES

Columns and labels:
[1] = molecular target: T1, Tyrosine-protein kinase BTK (Homo sapiens, UniProt Q06187); assay: Inhibition of BTK in human PBMC cells assessed as reduction in anti-IgM-stimulated CD69 expression on B cells preincubated for 60 mins followed by goat F(ab')2 anti-human IgM stimulation and measured after overnight incubation by flow cytometry; format: cell-based
[2] = molecular target: T1, Tyrosine-protein kinase BTK; assay: Covalent inhibition of N-terminal GST-fused human BTK (2-659(end) amino acids) expressed in baculovirus expression system using FITC-AHA-EEPLYWSFPAKKK-NH2 as substrate incubated for 90 mins by microfluidic off-Chip Mobility Shift Assay

Question: What does the source list for `C=CC(=O)N[C@H]1CC[C@@H](Nc2ncnc(N)c2-c2ccc(Oc3ccccc3)cc2)CC1`?
Answer: IC50 [1]: 660 nM; IC50 [2]: 33 nM

Question: `C=CC(=O)N1CCC(CNc2ncnc(N)c2-c2ccc(Oc3cccc(F)c3)cc2)CC1` was tested. Which IC50 [2] did it give?
Answer: The IC50 was 9 nM.

Question: What does the source list for `Nc1ncnc(NCC2CCN(C(=O)CCl)CC2)c1-c1ccc(Oc2ccccc2)cc1`?
Answer: IC50 [1]: 160 nM; IC50 [2]: 0.6 nM

Question: `C=CC(=O)Nc1cccc(Oc2ncncc2-c2ccc(Oc3ccccc3)cc2)c1` was tested. Which IC50 [2] did it give?
Answer: Its IC50 is 23 nM.

Question: With `C=CC(=O)N1CCCC(Nc2ncnc(N)c2-c2ccc(Oc3ccccc3)cc2)C1` (single isomer, unassigned) as the compound, how does the IC50 [1] read?
Answer: The IC50 was 143 nM.

Question: And the IC50 [2]?
Answer: Its IC50 is 6.5 nM.

Question: `C=CC(=O)N[C@@H]1CCC[C@H](Nc2ncnc(N)c2-c2ccc(Oc3ccccc3)cc2)C1` (relative stereo) was tested. Which IC50 [2] did it give?
Answer: Its IC50 is 14 nM.

Question: Which IC50 [1] does the source give for `C=CC(=O)N1CCC(O)(CNc2ncnc(N)c2-c2ccc(Oc3ccccc3)cc2)CC1` here?
Answer: The IC50 was 26 nM.

Question: What about the IC50 [2] of the same compound?
Answer: Its IC50 is 5.9 nM.

Question: `C=CC(=O)N1CC2(CC(Nc3ncnc(N)c3-c3ccc(Oc4ccccc4)cc3)C2)C1` was tested. Which IC50 [1] did it give?
Answer: Its IC50 is 66 nM.

Question: And the IC50 [2]?
Answer: The IC50 was 2.1 nM.

Question: For `C=CS(=O)(=O)N1CCC(CNc2ncnc(N)c2-c2ccc(Oc3ccccc3)cc2)CC1`, which IC50 [1] is on record?
Answer: The IC50 was 45 nM.

Question: And the IC50 [2]?
Answer: The IC50 was 0.8 nM.

Question: With `C=CC(=O)N[C@@H]1CC[C@H](Nc2ncnc(N)c2-c2ccc(Oc3ccccc3)cc2)C1` (relative stereo) as the compound, how does the IC50 [2] read?
Answer: The IC50 was 21 nM.

Question: Which results are given for `C=CC(=O)N1CCC(Nc2ncnc(N)c2-c2ccc(Oc3ccccc3)cc2)C1` (single isomer, unassigned)?
Answer: IC50 [1]: 217 nM; IC50 [2]: 5.5 nM
